Test results published in patent US20100305113A1, “Substituted Imidazopyridazines as Lipid Kinase Inhibitors” (priority 2007, published 2010).

The chains behind the UniProt entries cited, without tags or fusion partners. A line that says so, or that is headed by a name, gives the form on record, which may keep a tag or linker. Residues count along the entry.
UniProt O00329, 2-1044 with tags or gaps limits assumed: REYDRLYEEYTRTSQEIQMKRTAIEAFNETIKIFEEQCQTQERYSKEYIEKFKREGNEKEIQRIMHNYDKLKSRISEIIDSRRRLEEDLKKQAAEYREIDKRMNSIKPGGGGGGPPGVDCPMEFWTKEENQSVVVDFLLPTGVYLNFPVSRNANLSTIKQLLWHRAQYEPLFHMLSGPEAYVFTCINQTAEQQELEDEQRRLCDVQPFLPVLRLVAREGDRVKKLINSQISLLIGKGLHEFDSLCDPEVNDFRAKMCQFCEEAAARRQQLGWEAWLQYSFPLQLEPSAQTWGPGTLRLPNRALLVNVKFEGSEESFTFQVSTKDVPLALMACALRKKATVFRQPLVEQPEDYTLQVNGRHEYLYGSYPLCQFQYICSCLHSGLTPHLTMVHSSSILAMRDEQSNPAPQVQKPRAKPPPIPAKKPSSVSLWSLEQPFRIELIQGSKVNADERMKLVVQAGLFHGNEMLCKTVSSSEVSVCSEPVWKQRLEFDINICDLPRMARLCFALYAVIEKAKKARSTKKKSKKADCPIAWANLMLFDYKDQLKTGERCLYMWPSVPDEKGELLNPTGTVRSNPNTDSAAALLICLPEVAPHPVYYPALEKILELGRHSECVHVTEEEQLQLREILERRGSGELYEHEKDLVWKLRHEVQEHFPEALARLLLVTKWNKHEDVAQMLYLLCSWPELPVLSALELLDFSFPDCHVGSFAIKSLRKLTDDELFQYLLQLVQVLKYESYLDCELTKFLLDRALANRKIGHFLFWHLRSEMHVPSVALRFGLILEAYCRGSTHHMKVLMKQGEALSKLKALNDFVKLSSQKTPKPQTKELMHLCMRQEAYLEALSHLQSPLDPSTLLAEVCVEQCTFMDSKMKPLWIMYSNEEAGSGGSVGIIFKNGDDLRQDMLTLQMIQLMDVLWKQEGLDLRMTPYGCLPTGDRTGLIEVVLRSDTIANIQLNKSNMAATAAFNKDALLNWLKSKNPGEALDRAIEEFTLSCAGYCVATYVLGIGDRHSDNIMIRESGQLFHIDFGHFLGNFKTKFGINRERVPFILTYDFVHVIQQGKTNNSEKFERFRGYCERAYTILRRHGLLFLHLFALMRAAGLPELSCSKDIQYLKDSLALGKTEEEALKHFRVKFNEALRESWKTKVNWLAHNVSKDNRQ
UniProt P48736, 144-1102 limits assumed: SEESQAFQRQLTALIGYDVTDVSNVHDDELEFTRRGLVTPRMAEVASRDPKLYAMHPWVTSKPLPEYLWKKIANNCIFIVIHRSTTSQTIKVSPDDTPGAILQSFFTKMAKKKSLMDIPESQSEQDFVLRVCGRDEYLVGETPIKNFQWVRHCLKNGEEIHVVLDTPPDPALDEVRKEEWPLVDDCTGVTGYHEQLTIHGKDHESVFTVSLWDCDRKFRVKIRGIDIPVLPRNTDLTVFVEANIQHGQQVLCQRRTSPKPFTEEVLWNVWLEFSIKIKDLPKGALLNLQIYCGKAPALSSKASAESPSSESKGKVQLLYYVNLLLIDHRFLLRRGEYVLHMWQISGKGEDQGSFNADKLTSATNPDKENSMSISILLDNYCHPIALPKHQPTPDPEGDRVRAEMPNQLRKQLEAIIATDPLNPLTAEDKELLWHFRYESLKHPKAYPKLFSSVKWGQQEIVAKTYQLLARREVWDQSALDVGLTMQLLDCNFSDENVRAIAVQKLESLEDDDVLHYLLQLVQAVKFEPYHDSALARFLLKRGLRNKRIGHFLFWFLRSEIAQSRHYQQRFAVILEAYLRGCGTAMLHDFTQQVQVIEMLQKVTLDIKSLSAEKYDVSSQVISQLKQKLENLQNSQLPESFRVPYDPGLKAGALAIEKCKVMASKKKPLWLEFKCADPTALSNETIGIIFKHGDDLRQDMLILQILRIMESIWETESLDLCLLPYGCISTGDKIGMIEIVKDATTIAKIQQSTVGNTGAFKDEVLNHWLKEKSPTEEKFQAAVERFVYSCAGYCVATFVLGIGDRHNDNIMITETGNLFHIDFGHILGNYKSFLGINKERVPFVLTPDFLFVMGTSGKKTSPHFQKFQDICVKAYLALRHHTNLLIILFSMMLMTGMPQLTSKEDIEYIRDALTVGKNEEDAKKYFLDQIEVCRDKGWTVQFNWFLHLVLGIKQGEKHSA
UniProt P42338, 2-1070 with tags or gaps limits assumed: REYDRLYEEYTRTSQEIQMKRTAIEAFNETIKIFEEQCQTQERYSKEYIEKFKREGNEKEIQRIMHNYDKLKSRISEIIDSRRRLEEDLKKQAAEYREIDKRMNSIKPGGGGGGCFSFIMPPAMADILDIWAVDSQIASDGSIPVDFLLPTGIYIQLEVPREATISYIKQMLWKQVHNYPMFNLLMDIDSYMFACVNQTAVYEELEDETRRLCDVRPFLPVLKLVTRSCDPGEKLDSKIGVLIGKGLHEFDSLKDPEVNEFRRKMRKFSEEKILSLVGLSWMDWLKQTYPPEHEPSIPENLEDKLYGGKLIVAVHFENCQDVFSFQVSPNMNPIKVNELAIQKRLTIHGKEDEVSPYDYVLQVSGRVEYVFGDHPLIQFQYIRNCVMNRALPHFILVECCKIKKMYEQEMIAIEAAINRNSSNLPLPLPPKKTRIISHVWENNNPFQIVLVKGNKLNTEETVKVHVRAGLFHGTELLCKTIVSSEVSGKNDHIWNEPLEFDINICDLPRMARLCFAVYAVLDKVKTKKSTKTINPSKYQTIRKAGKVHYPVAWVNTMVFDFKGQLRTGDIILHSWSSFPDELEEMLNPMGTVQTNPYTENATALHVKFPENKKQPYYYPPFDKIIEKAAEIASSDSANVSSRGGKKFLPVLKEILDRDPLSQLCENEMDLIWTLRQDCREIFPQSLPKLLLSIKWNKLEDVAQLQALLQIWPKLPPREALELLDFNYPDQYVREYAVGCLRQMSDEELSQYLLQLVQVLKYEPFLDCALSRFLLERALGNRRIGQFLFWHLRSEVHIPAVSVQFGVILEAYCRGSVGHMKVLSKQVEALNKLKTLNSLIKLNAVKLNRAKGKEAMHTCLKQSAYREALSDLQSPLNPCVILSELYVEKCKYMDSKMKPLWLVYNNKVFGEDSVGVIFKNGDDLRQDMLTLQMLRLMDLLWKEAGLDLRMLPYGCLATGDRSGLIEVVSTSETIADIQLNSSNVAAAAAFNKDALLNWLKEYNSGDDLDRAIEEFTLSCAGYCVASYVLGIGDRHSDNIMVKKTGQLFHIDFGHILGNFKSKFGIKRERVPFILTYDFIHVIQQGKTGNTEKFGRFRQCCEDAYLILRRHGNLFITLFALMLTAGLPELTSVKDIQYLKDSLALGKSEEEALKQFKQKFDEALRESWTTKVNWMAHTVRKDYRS
UniProt P42336, 21-1068 with tags or gaps limits assumed: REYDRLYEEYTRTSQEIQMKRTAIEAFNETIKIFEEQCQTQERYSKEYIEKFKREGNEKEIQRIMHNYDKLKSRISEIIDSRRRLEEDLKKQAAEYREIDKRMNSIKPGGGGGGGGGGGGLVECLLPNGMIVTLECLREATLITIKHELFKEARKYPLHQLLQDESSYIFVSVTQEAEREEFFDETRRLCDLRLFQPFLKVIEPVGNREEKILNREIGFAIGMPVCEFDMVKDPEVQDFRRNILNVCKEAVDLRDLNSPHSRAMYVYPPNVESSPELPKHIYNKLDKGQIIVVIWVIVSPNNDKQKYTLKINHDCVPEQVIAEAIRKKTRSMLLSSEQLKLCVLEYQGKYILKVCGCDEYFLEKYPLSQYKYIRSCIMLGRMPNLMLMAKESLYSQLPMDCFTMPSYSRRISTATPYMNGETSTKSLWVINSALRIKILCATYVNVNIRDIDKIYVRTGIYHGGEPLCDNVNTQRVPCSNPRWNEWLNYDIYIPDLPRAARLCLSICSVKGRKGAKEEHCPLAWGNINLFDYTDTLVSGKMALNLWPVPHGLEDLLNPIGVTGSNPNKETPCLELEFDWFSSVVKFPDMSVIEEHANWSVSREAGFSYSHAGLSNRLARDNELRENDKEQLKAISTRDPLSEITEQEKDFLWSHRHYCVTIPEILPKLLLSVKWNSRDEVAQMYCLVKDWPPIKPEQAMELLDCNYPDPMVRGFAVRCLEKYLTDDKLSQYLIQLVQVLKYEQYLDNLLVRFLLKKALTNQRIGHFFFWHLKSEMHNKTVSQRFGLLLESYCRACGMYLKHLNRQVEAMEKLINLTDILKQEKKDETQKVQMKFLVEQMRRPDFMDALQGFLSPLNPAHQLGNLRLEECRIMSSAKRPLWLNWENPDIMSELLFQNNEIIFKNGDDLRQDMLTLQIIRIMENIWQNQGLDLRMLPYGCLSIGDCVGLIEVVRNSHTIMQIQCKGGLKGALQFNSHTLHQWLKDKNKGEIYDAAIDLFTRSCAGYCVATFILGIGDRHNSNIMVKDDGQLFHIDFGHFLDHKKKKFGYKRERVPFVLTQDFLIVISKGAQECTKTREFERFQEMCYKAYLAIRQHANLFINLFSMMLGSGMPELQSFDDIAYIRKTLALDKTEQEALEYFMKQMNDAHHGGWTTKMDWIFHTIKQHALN

Columns and labels:
[1] = target: PI3K delta (Homo sapiens, UniProt O00329); assay: PI3K delta enzymatic assay (Kinase-Glo luminescence); conditions: read-out: PI3K delta IC50; Enzymatic Data
Experimental: (§1) In a more preferred assay, the kinase reaction is performed in a final volume of 10 μL per well of a low volume non binding CORNING, 384 well black plate (Cat. No. #3676). The final concentrations of ATP and phosphatidyl inositol (PI) in the assay are 1 μM and 10 μg/mL respectively. The reaction is started by the addition of ATP.
(§2) The components of the assay are added per well as follows: […]
(§3) IC50 is determined by a four parameter curve fitting routine that comes aloneg with “excel fit”. […] Alternatively, IC50 values are calculated using idbsXLfit model 204, which is a 4 parameter logistic model.

[2] = target: PI3K gamma (Homo sapiens, UniProt P48736); assay: PI3K gamma enzymatic assay (Kinase-Glo luminescence); conditions: read-out: PI3K gamma IC50; Enzymatic Data
Experimental: as §1, §2, §3

[3] = target: PI3K beta (Homo sapiens, UniProt P42338); assay: PI3K beta enzymatic assay (Kinase-Glo luminescence); conditions: read-out: PI3K beta IC50; Enzymatic Data
Experimental: as §1, §2, §3

[4] = target: PI3K alfa (Homo sapiens, UniProt P42336); assay: PI3K alfa enzymatic assay (Kinase-Glo luminescence); conditions: read-out: PI3K alfa IC50; Enzymatic Data
Experimental: as §1, §2, §3

For `COc1cc(-c2ccc3nc(C)c(-c4cnc(N)c(C(F)(F)F)c4)n3n2)ccc1OCCNC(=O)c1ccc(F)c(F)c1`, the IC50 [1] was > 9.1 µM, the IC50 [2] was > 9.1 µM and the IC50 [3] was > 9.1 µM.
In the case of `COc1cc(-c2ccc3nc(C)c(-c4cnc(N)c(C(F)(F)F)c4)n3n2)ccc1OCCNC(=O)c1cccc(C(F)(F)F)c1`, the IC50 [1] is reported as > 9.1 µM, the IC50 [4] is reported as 3.69 µM and the IC50 [2] is reported as > 9.1 µM. For the same molecule, the IC50 [3] was > 9.1 µM.
With `COc1cccc(NC(=O)NCCCOc2ccc(-c3ccc4nc(C)c(-c5cnc(N)c(C(F)(F)F)c5)n4n3)cc2OC)c1` the IC50 [1] was > 9.1 µM, the IC50 [2] was > 9.1 µM and the IC50 [3] was > 9.1 µM.
